# Yeast mating assay B: variants of the scFv Ab-14

Reference: Li et al. 2023, doi:10.1038/s41467-023-39022-2. File: FLAb, binding data.

The target is the same throughout: PDVDLGDISGINAS, from the HR2 region of SARS-CoV-2 spike.

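These sequences belong to a second round, designed from the earlier measurements on random variants of the parent. Group labels follow the data file (Ctrl: baseline library sampled from a position-specific scoring matrix, with some repeated check sequences; En: ensemble of fine-tuned language models; GP: Gaussian process model; HC: hill climbing; Gen: genetic algorithm; Gibbs: Gibbs sampling; a sequence that several methods proposed may carry one label only). Affinity was read by AlphaSeq, a pooled yeast mating assay with surface-displayed partners. Binding brings cells together so that they mate, and sequencing counts the barcode pairs among the diploids. Read counts were normalised to the haploid input and turned into Kd by a linear fit to BCL2-family pairs of known affinity, for each replicate. Mating was done six times.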

Ab-14 is the parent antibody, in scFv form: VH, then a 15-residue (Gly4Ser)3 linker, then VL. The heavy chain is unchanged in all variants.
VH: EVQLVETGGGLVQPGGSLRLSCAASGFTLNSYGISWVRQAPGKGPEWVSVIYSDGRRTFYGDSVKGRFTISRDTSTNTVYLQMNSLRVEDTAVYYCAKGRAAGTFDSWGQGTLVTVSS
VL: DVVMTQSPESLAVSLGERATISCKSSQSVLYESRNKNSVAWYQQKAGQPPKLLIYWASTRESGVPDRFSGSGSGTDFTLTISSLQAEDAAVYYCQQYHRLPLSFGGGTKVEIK

Each variant is given by its three light chain CDRs, as the data file delimits them; those of the parent are KSSQSVLYESRNKNSVA, WASTRES, QQYHRLPLS.
Each Kd is an estimate from the mating assay, the geometric mean of the replicates in which the pair was seen; lower is stronger.
A pair that was not seen in any replicate is written "nd"; this usually means weak binding, but a binder can also be missed.
In the paper, a design with two or fewer of six values counts as a poor binder.
Values of this round are not directly comparable with the first-round values of the same sequences.
As a blank, each scFv also met three strains without target: over all light chain designs, 4% of these pairings were detected, typically at 430 nM and seldom below 38 nM. For each scFv, signals with the empty controls are counted beside the result.

| CDR-L1 | CDR-L2 | CDR-L3 | group | apparent Kd | seen in | signal with controls |
|---|---|---|---|---|---|---|
| KVPQSVLYESRNKNSVA | HASTRED | QQYHRLPLS | GP_HC | 650 pM | 6/6 | 1/18 |
| KLEQSHLYESRNKNSVA | EASTRES | QQYHRLPLS | GP_Gen | 500 pM | 6/6 | 1/18 |
| MISQLMNLGQFAINSVA | QASIRNH | QQYDRLPLA | En_Gen | 110 nM | 4/6 | 0/18 |
| KVMQSWLYESRNKNSVA | NASTRES | QQYHRLPLS | GP_Gen | 740 pM | 6/6 | 1/18 |
| IFSQSVLMGNLTKNSIA | QASTRFS | QQYHRLPLI | En_HC | 66 nM | 6/6 | 1/18 |
| KLSQSDWMESRNKWNVA | SASYRES | QQYHRLPLS | GP_Gibbs | 980 pM | 6/6 | 0/18 |
| MLSMVTEGMARKHSSVA | DNSTREA | QQYDRLPLS | En_Gen | nd | 0/6 | 2/18 |
| KLPQQVLYESRNKNSVA | NASTRES | QQYHRLPLS | GP_Gen | 1.0 nM | 6/6 | 4/18 |
| KSSQSVLDTGRNRNSVA | WASTRES | QQYHRLPLS | Ctrl | 9.6 nM | 6/6 | 0/18 |
| KLSQSVGMQSRNKWSVA | EASTRES | QQYHRLPLS | GP_Gibbs | 120 nM | 6/6 | 2/18 |
| KSSQSWLYESRNKNSVA | GASTREW | QQYHRLPLS | GP_HC | 8.6 nM | 6/6 | 0/18 |
| KLEQLVLYESRNKNSVA | NASTRES | QQYHRLPLS | GP_Gen | 970 pM | 6/6 | 0/18 |
| IISQVDDYLSRQTNSIA | DQTTRGS | QQYDRLPLS | En_HC | 20 nM | 6/6 | 0/18 |
| KSSEVVLYESHNKNSVA | NASTRMS | QQYHRLPLS | GP_HC | 2.9 nM | 6/6 | 2/18 |
| KLSASTSYESLNKNSVA | ELTTRGG | QQYNRLPLS | En_HC | 4.0 nM | 6/6 | 1/18 |
| KLSQSVHGESRNKNSVA | QASTREH | QQYHRLPLI | Ctrl | nd | 0/6 | 0/18 |
| KSSQSVGDESRNKNSVA | WASTRES | QQYYRLPLS | Ctrl | 50 nM | 5/6 | 1/18 |
| KSSISVKFESRNKNSVA | DASTRES | QQYHRLPLS | GP_HC | 2.8 nM | 6/6 | 2/18 |
| KSSQSVLYESYNKNSVA | WASTRES | QQYHRLWLS | Ctrl | nd | 0/6 | 0/18 |
| KLEQGVLMESRNKNSVA | HASMRES | QQYHRLPLS | GP_Gibbs | 750 pM | 6/6 | 3/18 |
| KLRQSTWYESRNQNSVA | WASTRES | QQYHRLPLS | GP_HC | 3.7 nM | 6/6 | 5/18 |
| KLSQSVPYESRNKAQVA | DASTRMS | QQYHRLPLS | GP_Gibbs | 18 nM | 6/6 | 0/18 |
| HMSMITLMGSRNRNSVA | QMTTREN | QQYDHLPLA | En_Gen | 150 nM | 6/6 | 0/18 |
| KQSDSVLGESRNKNSVA | DASTRES | QQYHRLPLS | GP_HC | 1.6 nM | 6/6 | 1/18 |
| KLSQSVLYESRNKNSVA | NASTRES | QQYHRLPSS | GP_HC | 190 nM | 1/6 | 3/18 |
| KSSQSVLYESDNKNNVA | NASTRQS | QQYHILPLS | Ctrl | 4.2 nM | 6/6 | 2/18 |
| KSSQSVLYESRNKNPVA | EASTRES | QQYHRLPLS | Ctrl | 4.9 nM | 6/6 | 0/18 |
| HMSLLTLSGLRNRNSVA | QMTTREN | QQYDRLPLA | En_Gen | 12 nM | 6/6 | 1/18 |
| KISQSVNVGQKNKNSLA | EMSTREF | QDYHRLPLS | En_HC | 44 nM | 6/6 | 0/18 |
| KLMNSLEAFKQWEDNVA | EVEHKVA | QQYYHLPLT | En_Gibbs | 4.3 nM | 1/6 | 0/18 |
| KVSQSVLYEDRNKNSVA | EASQRES | QQYHRLPLS | GP_Gen | 7.6 nM | 6/6 | 1/18 |
| KSSGSVQGEDWNSNSVA | NASQRES | QQYHRLPLS | GP_Gibbs | 2.3 nM | 6/6 | 0/18 |
| KSSQSVLNESANKNSVA | WANTRES | QQYHWLPFS | Ctrl | 1.8 µM | 5/6 | 2/18 |
| KLRQSTVIESFQKNNVA | EMTTRES | QSYDRLPLS | En_HC | 31 nM | 6/6 | 0/18 |
| MISDMGLHDSRVQDSVA | NNSTREA | QQYDRLPLS | En_HC | 250 nM | 6/6 | 2/18 |
| HVKEDLNMGMKFQSSVA | SGAHREH | QQYYRLPLG | En_Gibbs | 4.3 nM | 6/6 | 3/18 |
| KVYQSVPYESRNKNSVA | EASTRES | QQYHRLPLS | GP_Gen | 950 pM | 6/6 | 0/18 |
| KSSWSVLYESGNKNSVA | HASTRED | QQYHRLPLS | GP_HC | 3.6 nM | 6/6 | 1/18 |
| KSSQEVLVTSRNKNSVA | WASTRES | QQYHRLPLS | Ctrl | 89 nM | 6/6 | 1/18 |
| IVSQMMLWGLHAKNSIA | EAVTRLN | QQYDRLPLF | En_Gen | 39 nM | 2/6 | 0/18 |
| SLMQVGGYESNSHNSIA | DLRTRES | QQYHRLPLS | En_HC | 3.0 nM | 6/6 | 1/18 |
| KISMLQRYESQTKNNIA | EMSRREN | QQYHRLPLS | En_HC | 2.8 nM | 6/6 | 1/18 |
| HSSPSELYESRNGNSVA | NASMRES | QQYHRLPLS | GP_HC | 3.8 nM | 6/6 | 0/18 |
| KSSQPVLYESRNKNSVA | WASTRES | QQYHRLPLS | Ctrl | 390 nM | 3/6 | 0/18 |
| KLEQSNLYESRNKNSVA | NASQRES | QQYHRLPLS | GP_Gen | 420 pM | 6/6 | 0/18 |
| KLLQAVLGETYNKNSVA | HNSTRED | QEYARLPLS | En_HC | 220 nM | 2/6 | 1/18 |
| HLSWQVLYESRNKNSVA | NASTRES | QQYHRLPLS | GP_HC | 1.5 nM | 6/6 | 1/18 |
| KVSEFMKGLTMRKDSIA | DNNTRGT | QQYDRLPLS | En_Gen | 39 nM | 6/6 | 2/18 |
| KSSQSWLYESRNKNSVA | GGNTRES | QQYHRLPLS | GP_HC | 810 pM | 6/6 | 0/18 |
| KCPQSVLYESRNNNSVA | AASTRRS | QQYHRLPPS | Ctrl | 660 nM | 1/6 | 1/18 |

Extract of 4 entries:

| CDR-L1 | CDR-L2 | CDR-L3 | group | apparent Kd | seen in | signal with controls |
|---|---|---|---|---|---|---|
| KLSQSDWMESRNKWNVA | SASYRES | QQYHRLPLS | GP_Gibbs | 980 pM | 6/6 | 0/18 |
| KLSQSVGMQSRNKWSVA | EASTRES | QQYHRLPLS | GP_Gibbs | 120 nM | 6/6 | 2/18 |
| KLLQAVLGETYNKNSVA | HNSTRED | QEYARLPLS | En_HC | 220 nM | 2/6 | 1/18 |
| KVSEFMKGLTMRKDSIA | DNNTRGT | QQYDRLPLS | En_Gen | 39 nM | 6/6 | 2/18 |